# Values of other authors, collected in publication PMC3669347, “A Multi-System Approach Assessing the Interaction of Anticonvulsants with P-gp” (PLoS ONE, 2013).
# Test system: hOCT1
# Details: human brain endothelial cells; cited from earlier work
structure (smiles),measurement,value
Nc1nnc(-c2cccc(Cl)c2Cl)c(N)n1 [lamotrigine],Substrate for the influx transporter hOCT1,substrate
